The subject of data set [1] is TAMRA-DNA-BHQ1. The experiment in a line: TAMRA-DNA-BHQ1 fluorescence switch assay.
Data set [2] concerns FAM-DNA-BHQ1. Briefly: FAM-DNA-BHQ1 fluorescence switch assay.
Data set [3] is described as follows: Colorimetric conversion of Iodonitrotetrazolium to Formazan. The note with it: for color change of Iodonitrotetrazolium with NADH: 100 μM NADH, 500 μM Iodonitrotetrazolium, 5 minutes.
The test system of data set [4] is CY5-oligo-BHQ1. The experiment in a line: CY5-oligo-BHQ1 (CY5-DNA-BHQ1) fluorescence switch assay.
The subject of data set [5] is TAMRA-DNA. The experiment in a line: UV fluorescence quenching of TAMRA-DNA.
Data set [6] in a line: FAM fluorescence quenching assay. In kind it is biochemical. The settings on record: 1 μM FAM; saturating protein. An excerpt: The fluorescence enhancing or quenching properties of Gyrl-like proteins can be used as a tool for identifying aptamers for target organic compounds. Building on Examples 1-8 we designed a protocol for identifying aptamers that bind to fluorescent dyes 5(6)-Carboxyfluorescein (FAM) and 5-Carboxytetramethylrhodamine (TAMRA) (FIG. 4). Both dyes are similar in structure and fluorescence in the green and red regions, respectively. The binding of FAM and TAMRA by Gyrl-like variant aptamers will result in enhancement or quenching of fluorescence. The invention method starts with screening our 3-selected wildtype Gyrl-like proteins to determine which can alter the fluorescence of FAM in solution (FIG. 11A).

Data set [7] has as its system TAMRA-DNA. The experiment in a line: TAMRA-labeled DNA fluorescence quenching assay. The note with it: for effect on 100 nM TAMRA-DNA fluorescence: 5 nM protein.
In data set [8] the test system is FAM-PNA. The experiment in a line: FAM-labeled oligonucleotide quenching assay. In kind it is biochemical. From the text: FAM and other similar compounds are often used as labels for nucleic acids. Many biotechnology applications such as lateral flow devices and quantitative PCR use labeled oligonucleotides of this kind for sensitive signal detection. […] Accordingly, provided herein is a method to induce a fluorescence decrease from a fluorophore-labeled nucleic acid. Also provided herein are invention methods of binding and localizing proteins to the 5′ or 3′ end of nucleic acids. Internal labeled nucleic acids can also be used to localize Gyrl-like proteins to specific base positions. The invention methods also provide powerful tools using fluorophore-labeled nucleic acid that can be applied in biosensors, bioswitches, and molecular diagnostics.

Data set [9] in a line: Colorimetric hydrolysis of pNPP to pNP. It is filed as biochemical. The note with it: 10 μg/ml or 100 μg/ml protein; 3 hours. From the text:
In example 9, we engineered a novel enzymatic Gyrl-like aptamer LIN2189 DUB that is capable of modifying unrelated fluorescence dyes thereby quenching their fluorescence. Using the invention methods provided herein, those of skill in the art recognize that several other enzymatic Gyrl-like proteins can be selected for numerous chemical substrates. We examined whether LIN2189 DUB and other Gyrl-like variant aptamers function to catalyze other important chemical reactions used in biotechnology. Alkaline phosphatase is an important enzyme used in biotechnology for dephosphorylating chemical and biological substrates. In simple colorimetric reactions, alkaline phosphatase is able to dephosphorylate its colorless substrate p-Nitrophenyl Phosphate (pNPP) producing the yellow product p-Nitrophenol (pNP) (FIG. 15A). Because LIN2189 WT is categorized as a hydrolase like alkaline phosphatase, we assessed whether the promiscuous GYRYZYME LIN2189 DUB could hydrolyze pNPP to produce pNP. We mixed 100 μl of pNPP substrate in samples with no protein or with 10 μg/ml or 100 μg/ml LIN2189 DUB.

For data set [10], the system named is E. coli cells. Briefly: In vivo drug-binding aptamer screening, growth in ampicillin. The note with it: up to 100 μg/ml ampicillin; 24 hrs; OD600.
Data set [11] concerns E. coli cells. Briefly: Ex vivo ampicillin inactivation, bacterial growth. The note with it: 5 μg/ml or 500 μg/ml ampicillin; 80 μg/ml protein.
Data set [12] has as its system E. coli cells. The experiment in a line: Colony formation on ampicillin/IPTG agar plates. In kind it is cell-based. The note with it: 24-hour incubation at 37° C.
A short description of data set [13]: Acridine Orange fluorescence assay. The note with it: 500 nM Acridine Orange.
Data set [14] is described as follows: pH stability of Thiazole Orange fluorescence module.
The mark [15] stands for this setting: pre-activated with complementary RNA.

B1: CTR107 TRIP: CTR107 triple mutant (E36R, H40Y, Y106W), SEQ ID NO:24 (protein, listed as Escherichia coli)
chain: MDFECQFVCELKELAPVPALLIRTQTTMSELGSLFRAGYYDILQLLAGQGKSPSGPPFARYFGMSAGTFEVEFGFPVEGGVEGSGRVVTGLTPSGKAASSLYIGPWGEIEAVYDALMKWVDDNGFDLSGEAYEIYLDNPAETAPDQLRTRVSLMLHESLEHHHHHH
In the case of B1, in [1], the “TAMRA-DNA-BHQ1 activation compared to complementary RNA” value is recorded as “comparable” and the “activation of TAMRA-DNA-BHQ1 bioswitch” value was determined as 25 fold. In [2], the “FAM-DNA-BHQ1 activation compared to complementary RNA” value is given as “comparable” and the “activation of FAM-DNA-BHQ1 bioswitch” value is on record as 56 fold. Further, the “color change of Iodonitrotetrazolium with NADH” value in [3] is reported as “much stronger red colorimetric change”. The “color change of Iodonitrotetrazolium with cofactor” value in [3] (2 hr) is recorded as “dark burgundy color change”. In addition, in data set [4], the “CY5-DNA-BHQ1 activation, weaker than complementary RNA” value came to 50%. The “activation of CY5-DNA-BHQ1 bioswitch” value in [4] (Example 12) came out at 10 fold.

B2: CTR107 QUAD: CTR107 quadruple mutant (E36R, H40Y, Y106W, E133Q), SEQ ID NO:26 (protein, listed as Escherichia coli)
chain: MDFECQFVCELKELAPVPALLIRTQTTMSELGSLFRAGYYDILQLLAGQGKSPSGPPFARYFGMSAGTFEVEFGFPVEGGVEGSGRVVTGLTPSGKAASSLYIGPWGEIEAVYDALMKWVDDNGFDLSGEAYQIYLDNPAETAPDQLRTRVSLMLHESLEHHHHHH
Take B2: the “color change of Iodonitrotetrazolium with NADH” value in [3] is given as “faint red signal”.

B3: LIN2189 E185L: LIN2189 variant aptamer, SEQ ID NO:30 (protein, listed as Escherichia coli)
chain: MGSHHHHHHTEKKIDFKKEEKKFYAPKRKPERIFVPEMNFLMVDGKGDPDGEEYQKAVQSLYAIAYTIKMSKMGETRLDGYSDFVVPPLEGFWWSEGKFDLKDRDAWLWTSILRQPDFVTEEVLEWAKEVARKKKPDVDTSRVKLVRFEEGECVQMMHVGPFSEEVHTVAEMHQFMETEGLRNDTGAIRKHHLIYLSDPRKANPEKMKTILRLPVS
Consider B3, for which the results for the “quenching of UV fluorescence of 100 nM TAMRA” value in data set [5] (1 nM protein), in data set [5] (10 nM protein) and in data set [5] (100 nM protein) were “ineffective”, “ineffective” and “shut off/quench”, respectively. In addition, in [6], the “decrease in FAM fluorescence” value is given as “no changes in fluorescence quenching compared to LIN2189 WT”. In addition, in [7], the “effect on 100 nM TAMRA-DNA fluorescence” value was “no effects on TAMRA fluorescence”.

B4: LIN2189 DUB: LIN2189 double mutant (E157A, E185L), SEQ ID NO:32, enzymatic GYRYZYME (protein, listed as Escherichia coli)
chain: MGSHHHHHHTEKKIDFKKEEKKFYAPKRKPERIFVPEMNFLMVDGKGDPDGEEYQKAVQSLYAIAYTIKMSKMGETRLDGYSDFVVPPLEGFWWSEGKFDLKDRDAWLWTSILRQPDFVTEEVLEWAKEVARKKKPDVDTSRVKLVRFEEGECVQMMHVGPFSEAVHTVAEMHQFMETEGLRNDTGAIRKHHLIYLSDPRKANPEKMKTILRLPVS
With B4, the “decrease in FAM-PNA fluorescence” value in [8] is listed as 31 fold. Besides, the results for the “fluorescence decrease of activated TAMRA-DNA-BHQ1” value in data set [1] (pre-activated with CTR107 TRIP) and in data set [1] (setting [15]) were “no effect” and 13 fold, respectively. In addition, the “quenching of UV fluorescence of 100 nM TAMRA” value is given as “approximately 70%” in data set [5] (1 nM protein), “efficiently quenched” in [5] (10 nM protein) and “efficiently quenched” in data set [5] (100 nM protein). The “conversion of pNPP to pNP (colorimetric)” value in data set [9] was “strong colorimetric changes”. For the same molecule, the “fluorescence reduction of activated FAM-DNA-BHQ1” value is listed as “no effect” in data set [2] (pre-activated with CTR107 TRIP) and 47 fold in data set [2] (setting [15]). Further, the “decrease in FAM fluorescence” value in data set [6] was 40 fold. In data set [10], the “ampicillin resistance of E. coli expressing the protein” value is “highest resistance”. In data set [11], the “bacterial growth in ampicillin pre-incubated with protein” value is reported as “induce resistance”. Further, the “reduction of 100 nM TAMRA fluorescence” value in data set [7] (1 nM and 500 μM protein, up to 5 minutes) stood at 2 fold. Also, the “effect on 100 nM TAMRA-DNA fluorescence” value in data set [7] is given as “efficiently shut off”. The “quenching of 100 nM TAMRA fluorescence” value in data set [7] (5 nM to 1 μM protein, 1 minute incubation) is listed as “completely shut off”. Also, the “quenching of TAMRA-DNA fluorescence” value in data set [7] (1 μM TAMRA-DNA, red channel) came to 22 fold. In addition, the “fluorescence reduction of activated CY5-DNA-BHQ1” value turned out to be 2 fold in [4] (pre-activated with CTR107 TRIP) and 39 fold in data set [4] (setting [15]). In addition, the “colonies on ampicillin/IPTG plates” value in [12] is on record as “bacterial growth”.

B5: SAV2435 V105W: SAV2435 variant aptamer, SEQ ID NO:10 (protein, listed as Escherichia coli)
chain: MEYQLQQLASLTLVGIKETYENGRQAQQHIAGFWQRCYQEGVIADLQLKNNGDLAGILGLCIPELDGKMSYMIAVTGDNSADIAKYDVITLASSKYMVFEAQGAWPKAVQQKMEEVHHYIHQYQANTVKSAPFFELYQDGDTTSEKYITEIWMPVKGLEHHHHHH
With B5, the “Acridine Orange fluorescence increase” value in data set [13] is “doubled the fluorescence intensity”. Also, the “decrease in Thiazole Orange fluorescence under acidic conditions” value in [14] (pH 3) is on record as 2 fold. Besides, in [14] (pH 11), the “stability of Thiazole Orange fluorescence under basic conditions” value is “slightly more stable than acidic”.
